Data taken from patent US20260384443A1, “THIADIAZOLES AS GLUTAMINASE I INHIBITORS” (published 2026).

Protein sequences, listed by entry. Tags and fused reporters are not part of them. Residues count along the entry.
UniProt O94925, 55-669 limits assumed: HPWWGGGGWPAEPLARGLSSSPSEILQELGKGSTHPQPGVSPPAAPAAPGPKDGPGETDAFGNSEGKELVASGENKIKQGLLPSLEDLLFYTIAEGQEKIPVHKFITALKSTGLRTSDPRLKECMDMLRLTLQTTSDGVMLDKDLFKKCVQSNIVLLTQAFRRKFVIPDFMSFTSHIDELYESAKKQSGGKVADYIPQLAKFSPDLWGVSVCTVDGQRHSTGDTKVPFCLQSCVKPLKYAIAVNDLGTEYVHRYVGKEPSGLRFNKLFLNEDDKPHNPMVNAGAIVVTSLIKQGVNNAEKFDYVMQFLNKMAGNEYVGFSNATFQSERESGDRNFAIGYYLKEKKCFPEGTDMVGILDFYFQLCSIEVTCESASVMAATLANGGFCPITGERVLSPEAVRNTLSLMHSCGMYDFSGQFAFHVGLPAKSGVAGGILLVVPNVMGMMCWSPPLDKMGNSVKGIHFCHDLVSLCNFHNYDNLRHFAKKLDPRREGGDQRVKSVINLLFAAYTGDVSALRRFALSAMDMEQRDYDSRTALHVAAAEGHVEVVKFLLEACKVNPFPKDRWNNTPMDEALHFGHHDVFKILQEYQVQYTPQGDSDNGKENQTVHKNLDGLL
UniProt O94925, 73-669 limits assumed: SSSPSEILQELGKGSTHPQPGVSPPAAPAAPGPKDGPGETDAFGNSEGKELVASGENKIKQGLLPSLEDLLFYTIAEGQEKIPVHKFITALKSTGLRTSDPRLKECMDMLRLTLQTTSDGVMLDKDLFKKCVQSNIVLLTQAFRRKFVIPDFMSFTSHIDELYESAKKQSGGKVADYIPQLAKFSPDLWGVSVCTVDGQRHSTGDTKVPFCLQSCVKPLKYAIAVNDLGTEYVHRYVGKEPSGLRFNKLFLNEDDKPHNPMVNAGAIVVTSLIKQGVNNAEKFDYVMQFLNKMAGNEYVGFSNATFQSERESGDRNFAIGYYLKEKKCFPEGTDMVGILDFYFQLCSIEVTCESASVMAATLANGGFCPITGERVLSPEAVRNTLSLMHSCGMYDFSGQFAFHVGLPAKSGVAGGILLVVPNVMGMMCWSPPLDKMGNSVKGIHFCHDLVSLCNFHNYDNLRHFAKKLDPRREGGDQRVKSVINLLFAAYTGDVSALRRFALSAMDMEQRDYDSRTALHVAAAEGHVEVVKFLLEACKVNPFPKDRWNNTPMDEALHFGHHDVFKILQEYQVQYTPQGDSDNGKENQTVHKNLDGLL

How the values were obtained:
GLS1 [1] = target: T1, GLS1 (Homo sapiens, UniProt O94925); experiment: GLS1 cell assay: intracellular glutamate level in A549 cells (Glutamine/Glutamate-Glo); conditions: read-out: Cell IC50, 2 h compound pre-incubation, then 24 h with L-Gln
GLS1 [2] = target: T1, GLS1; experiment: GLS1 enzymatic assay (three-stage coupled endpoint assay: GLS1/GDH/diaphorase, resorufin fluorescence); conditions: read-out: Enzyme IC50

| Structure (SMILES) | IC50 (GLS1 [1]) [nM] | IC50 (GLS1 [2]) [nM] |
| --- | --- | --- |
| CC(C(=O)Nc1nnc(N[C@@H]2CCN(c3cccnn3)C2)s1)C1CCN(Cc2ccc(OC(F)(F)F)cc2)CC1 (stereo partly drawn) | 8.1 | 68.9 |
| Cc1ccc(CN2CC[C@]3(C2)C[C@H](CC(=O)Nc2nnc(N[C@@H]4CCN(c5cccnn5)C4)s2)C3)c(OC(C)C)c1 (single isomer, unassigned) [Example 193] | 25.4 | 20.6 |
| O=C(CN1CCN(Cc2ccc(OC(F)(F)F)cc2)CC1)Nc1nnc(N[C@@H]2CCN(c3cccnn3)C2)s1 | 1.6 | 52.7 |
| CSc1ccccc1CN1CCCC(OCC(=O)Nc2nnc(N[C@@H]3CCN(c4cccnn4)C3)s2)C1 (stereo partly drawn) | 5.8 | 69.4 |
| CN1CCN(Cc2cccc(OC(F)(F)F)c2)[C@@H](CC(=O)Nc2nnc(N[C@@H]3CCN(c4cccnn4)C3)s2)C1 (single isomer, unassigned) [Example 65] | 12.7 | 35.2 |
| Cc1c(F)cc(CN2CCC[C@@H](CC(=O)Nc3nnc(N[C@@H]4CCN(c5cccnn5)C4)s3)C2)cc1F | 5.3 | 36.7 |
| CN(Cc1cccc(OC(F)(F)F)c1)C1(CC(=O)Nc2nnc(N[C@@H]3CCN(c4cccnn4)C3)s2)CCC1 | 6.4 | 126 |
| Cc1cc(CN2CCC(CC(=O)Nc3nnc(N[C@@H]4CCN(c5cccnn5)C4)s3)CC2)cc(OC(F)F)c1 | 11.8 | 30.4 |
| O=C(C[C@H]1CC2(CO1)CN(Cc1cccc(OC(F)(F)F)c1)C2)Nc1nnc(N[C@@H]2CCN(c3cccnn3)C2)s1 (single isomer, unassigned) [Example 81] | 6.3 | 24.1 |
| CC(C)(C)n1cc(CN2CCC(SCC(=O)Nc3nnc(N[C@@H]4CCN(c5cccnn5)C4)s3)CC2)cn1 | 47.2 | 18.7 |
| CC(C)Oc1ccccc1[C@@H](C)N1CCC(SCC(=O)Nc2nnc(N[C@@H]3CCN(c4cccnn4)C3)s2)CC1 (single isomer, unassigned) [Example 233] | 1.7 | 30.9 |
| C[C@@H](C(=O)Nc1nnc(N[C@@H]2CCN(c3cccnn3)C2)s1)C1CCN(Cc2ccc(OC(F)(F)F)cc2)CC1 (single isomer, unassigned) [Example 24] | 30.6 | 119 |
| CN(C)C(C(=O)Nc1nnc(N[C@@H]2CCN(c3cccnn3)C2)s1)C1CCN(Cc2ccc(OC(F)(F)F)cc2)CC1 (stereo partly drawn) | 40.5 | 236 |
| Cc1cc(F)cc(CN2CC3(CCN(CC(=O)Nc4nnc(N[C@@H]5CCN(c6cccnn6)C5)s4)C3)C2)c1 | 15 | 24.1 |
| O=C(CC1CC2(CCN(Cc3cccc(OC(F)F)c3)C2)C1)Nc1nnc(N[C@@H]2CCN(c3cccnn3)C2)s1 (stereo partly drawn) | 36.7 | 38.8 |
| C[C@@H]1CN(CC(=O)Nc2nnc(N[C@@H]3CCN(c4cccnn4)C3)s2)C[C@H](C)N1Cc1ccc(OC(F)(F)F)cc1 | 2.8 | 121 |
| CC(C)Oc1ccccc1CN1CCC(SCC(=O)Nc2nnc(N[C@@H]3CCN(c4cccnn4)C3)s2)CC1 | 2.3 | 17.7 |
| CCO[C@@H](C(=O)Nc1nnc(N[C@@H]2CCN(c3cccnn3)C2)s1)C1CCN(Cc2ccc(OC(F)F)cc2)CC1 (single isomer, unassigned) [Example 231] | 8.5 | 74 |

| Structure (SMILES) | IC50 (GLS1 [1]) [nM] | IC50 (GLS1 [2]) [nM] |
| --- | --- | --- |
| CC(C)Oc1cccc(CN2CCC(CC(=O)Nc3nnc(N[C@@H]4CCN(c5cccnn5)C4)s3)CC2)c1 | 14.1 | 34.6 |
| O=C(Nc1nnc(N[C@@H]2CCN(c3cccnn3)C2)s1)[C@H]1CCCN(Cc2ccc(OC(F)(F)F)cc2)C1 | 24.8 | 107 |
| Cc1ccc(CN2CCC(CC(=O)Nc3nnc(N[C@@H]4CCN(c5cccnn5)C4)s3)CC2)c(OC(C)C)c1 | 48.5 | 33.7 |
| Cc1ccccc1CN1CCC(C(C(=O)Nc2nnc(N[C@@H]3CCN(c4cccnn4)C3)s2)C2CCC2)CC1 (stereo partly drawn) | 35.9 | 119 |
| O=C(C[C@@H]1CCCN(Cc2cccc(OC(F)F)c2)C1)Nc1nnc(N[C@@H]2CCN(c3cccnn3)C2)s1 | 7.4 | 62.5 |
| O=C(CC1CCN(Cc2ccc(C(=O)O)cc2)CC1)Nc1nnc(N[C@@H]2CCN(c3cccnn3)C2)s1 | 10000 | 103 |
| Cc1cc(C)cc(CN2CCC(SCC(=O)Nc3nnc(N[C@@H]4CCN(c5cccnn5)C4)s3)CC2)c1 | 2.8 | 22.2 |
| O=C(CCN1CCC(Sc2cc(F)cc(F)c2)CC1)Nc1nnc(N[C@@H]2CCN(c3cccnn3)C2)s1 | 9.1 | 24.6 |
| O=C(Nc1nnc(N[C@@H]2CCN(c3cccnn3)C2)s1)[C@H]1CCCN(Cc2cccc(OC(F)(F)F)c2)C1 | 11.7 | 62.7 |
| O=C(CC1CCN(Cc2ccc(F)cc2OC(F)(F)F)CC1)Nc1nnc(N[C@@H]2CCN(c3cccnn3)C2)s1 | 4.2 | 61.3 |
| CO[C@@H](C(=O)Nc1nnc(N[C@@H]2CCN(c3cccnn3)C2)s1)C1CCN(Cc2ccc(OC(F)(F)F)cc2)CC1 (single isomer, unassigned) [Example 69] | 1.8 | 56 |
| CC(C)Oc1ccccc1CN1CCC[C@H](CC(=O)Nc2nnc(N[C@@H]3CCN(c4cccnn4)C3)s2)C1 | 112 | 45.9 |
| Cc1cc(CN2CCC[C@@H](CC(=O)Nc3nnc(N[C@@H]4CCN(c5cccnn5)C4)s3)C2)cc(OC(F)(F)F)c1 | 1.9 | 78.4 |
| O=C(C[C@H]1CCCN(Cc2cccc(OC(F)(F)F)c2)C1)Nc1nnc(N[C@@H]2CCN(c3cccnn3)C2)s1 | 4.7 | 37.6 |
| CC(C)Sc1ccc(CN2CCC(CC(=O)Nc3nnc(N[C@@H]4CCN(c5cccnn5)C4)s3)CC2)cc1 | 9.3 | 42.1 |
| CC[C@@H](C(=O)Nc1nnc(N[C@@H]2CCN(c3cccnn3)C2)s1)C1CCN(Cc2ccccc2OC(C)C)CC1 (single isomer, unassigned) [Example 208] | 83.5 | 58.6 |
| Cc1ccc(CN2CC[C@]3(C2)C[C@H](CC(=O)Nc2nnc(N[C@@H]4CCN(c5cccnn5)C4)s2)C3)c(OC(C)C)c1 (single isomer, unassigned) [Example 192] | 29.6 | 18.5 |
| CC(C)Oc1ccccc1CN1CCCC(SCC(=O)Nc2nnc(N[C@@H]3CCN(c4cccnn4)C3)s2)C1 (stereo partly drawn) | 5.2 | 36.7 |

The next lines start with the values.

| IC50 (GLS1 [1]) [nM] | IC50 (GLS1 [2]) [nM] | Structure (SMILES) |
| --- | --- | --- |
| 51.7 | 39.3 | CC1(C)CCC(CN2CC3(CO[C@@H](CC(=O)Nc4nnc(N[C@@H]5CCN(c6cccnn6)C5)s4)C3)C2)CC1 (single isomer, unassigned) [Example 98] |
| 7.8 | 23.2 | O=C(C[C@@H]1CN(C2CCC3(CCCC3)CC2)CCO1)Nc1nnc(N[C@@H]2CCN(c3cccnn3)C2)s1 (single isomer, unassigned) [Example 273] |
| 2.7 | 21.8 | CC(C)[C@H]1CC[C@H](N2CCO[C@H](CC(=O)Nc3nnc(N[C@@H]4CCN(c5cccnn5)C4)s3)C2)CC1 (single isomer, unassigned) [Example 245] |
| 2.4 | 21 | CC(C)C1CCC(N2CCOC(CC(=O)Nc3nnc(N[C@@H]4CCN(c5cccnn5)C4)s3)C2)CC1 (stereo partly drawn) |
| 11.7 | 47.2 | CC1(C)CCC(N2CCO[C@@H](CC(=O)Nc3nnc(N[C@@H]4CCN(c5ccc(Cl)nn5)C4)s3)C2)CC1 (single isomer, unassigned) [Example 283] |
| 1.3 | 64.4 | CC(C)(C)[C@H]1CC[C@H](N2CCOC(CC(=O)Nc3nnc(N[C@@H]4CCN(c5cccnn5)C4)s3)C2)CC1 (stereo partly drawn) |
| 34 | 52.2 | O=C(C[C@@H]1CCCN(Cc2ccccc2OC2CCCC2)C1)Nc1nnc(N[C@@H]2CCN(c3cccnn3)C2)s1 |
| 28 | 40.1 | O=C(CC1COCCN1C1CCCCC1)Nc1nnc(N[C@@H]2CCN(c3cccnn3)C2)s1 (stereo partly drawn) |
| 28.8 | 30.4 | O=C(CC1CN(C23CCC(CC2)CC3)CCO1)Nc1nnc(N[C@@H]2CCN(c3cccnn3)C2)s1 (stereo partly drawn) |
| 17.4 | 37.4 | O=C(CC1CCC2(CC1)CCN(Cc1ccccc1)CC2)Nc1nnc(N[C@@H]2CCN(c3cccnn3)C2)s1 |
| 10 | 23 | O=C(CC1CN(C2CCC3(CC2)CC3)CCO1)Nc1nnc(N[C@@H]2CCN(c3cccnn3)C2)s1 (stereo partly drawn) |
| 12.6 | 53.8 | CC1(C)CC(N2CCN(CC(=O)Nc3nnc(N[C@@H]4CCN(c5cccnn5)C4)s3)CC2)CC(C)(C)C1 |
| 8590 | 5000 | CC(C)[C@@H]1CC[C@@H](C)C[C@@H]1N1CCO[C@H](CC(=O)Nc2nnc(N[C@@H]3CCN(c4cccnn4)C3)s2)C1 (racemic) [Example 127] |
| 7.2 | 20.4 | O=C(C[C@H]1CN(C2CC3(CCCC3)C2)CCO1)Nc1nnc(N[C@@H]2CCN(c3cccnn3)C2)s1 (single isomer, unassigned) [Example 266] |
| 18.2 | 43.6 | O=C(CC1CCN(Cc2ccccc2Cl)CC1)Nc1nnc(N[C@@H]2CCN(c3cccnn3)C2)s1 |
| 2.7 | 29 | CC1(C)CCC(N2CCC(F)(F)C(CC(=O)Nc3nnc(N[C@@H]4CCN(c5cccnn5)C4)s3)C2)CC1 (stereo partly drawn) |
| 206 | 145 | CN1CCN(C2CCC(C)(C)CC2)C[C@H]1CC(=O)Nc1nnc(N[C@@H]2CCN(c3cccnn3)C2)s1 (single isomer, unassigned) [Example 288] |
| 1.7 | 16.4 | O=C(C[C@H]1CN(C2CC3(CCCC3)C2)CCO1)Nc1nnc(N[C@@H]2CCN(c3cccnn3)C2)s1 (single isomer, unassigned) [Example 267] |
| 8 | 20.3 | Cc1cc(CN2CCC[C@@H](CC(=O)Nc3nnc(N[C@@H]4CCN(c5cccnn5)C4)s3)C2)cc(F)c1C |
| 81 | 41.2 | CC1(C)CCC(CN2CC3(CO[C@@H](CC(=O)Nc4nnc(N[C@@H]5CCN(c6cccnn6)C5)s4)C3)C2)CC1 (single isomer, unassigned) [Example 97] |
| 21.3 | 25.9 | O=C(C[C@H]1CN(C2CCC3(CC2)CC3)CCO1)Nc1nnc(N[C@@H]2CCN(c3cccnn3)C2)s1 (single isomer, unassigned) [Example 253] |
